Source: ChEMBL document CHEMBL6087464, “Design, Synthesis, and Biological Evaluation of 3,4-Dihydroisoquinolin-1(2H)-one Derivatives as Protein Arginine Methyltransferase 5 Inhibitors for the Treatment of Non-Hodgkin's Lymphoma” (J Med Chem, 2025)

The chains behind the UniProt entries cited, without tags or fusion partners.
UniProt Q99873, whole entry: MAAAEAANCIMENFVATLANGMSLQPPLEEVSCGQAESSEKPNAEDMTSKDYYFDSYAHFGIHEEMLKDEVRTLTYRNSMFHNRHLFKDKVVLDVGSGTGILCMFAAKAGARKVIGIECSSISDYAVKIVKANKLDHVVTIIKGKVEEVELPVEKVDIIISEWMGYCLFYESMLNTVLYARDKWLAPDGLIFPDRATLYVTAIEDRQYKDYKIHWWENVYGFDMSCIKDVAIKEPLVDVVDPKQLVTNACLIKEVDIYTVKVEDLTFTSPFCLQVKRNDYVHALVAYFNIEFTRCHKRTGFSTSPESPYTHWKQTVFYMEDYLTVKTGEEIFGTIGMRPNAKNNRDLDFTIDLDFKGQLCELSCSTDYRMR

Target: Protein arginine N-methyltransferase 1 (Homo sapiens, UniProt Q99873)
Assay: Inhibition of PRMT1 (unknown origin)

Work on `C[S+](CC[C@H](N)C(=O)[O-])C[C@H]1O[C@@H](n2cnc3c(N)ncnc32)[C@H](O)[C@@H]1O` (stereo partly specified) [ADEMETIONINE] yielded an IC50 of 468 nM.
